Tests used:
[1] = target: T1, Ephrin type-A receptor 2 (Homo sapiens, UniProt P29317); test: Antagonist activity at EphA2 in human PC3 cells assessed as inhibition of ephrin-A1-Fc-stimulated EphA2 phosphorylation pretreated for 20 mins by sandwich ELISA; assay type: cell-based, PC-3
[2] = target: T1, Ephrin type-A receptor 2; test: Inhibition of ephrin-A1-Fc binding to EphA2-Fc receptor (unknown origin) after 1 hr by ELISA

Amino acid sequences for entries named in this document (tags omitted).
UniProt P29317, whole entry: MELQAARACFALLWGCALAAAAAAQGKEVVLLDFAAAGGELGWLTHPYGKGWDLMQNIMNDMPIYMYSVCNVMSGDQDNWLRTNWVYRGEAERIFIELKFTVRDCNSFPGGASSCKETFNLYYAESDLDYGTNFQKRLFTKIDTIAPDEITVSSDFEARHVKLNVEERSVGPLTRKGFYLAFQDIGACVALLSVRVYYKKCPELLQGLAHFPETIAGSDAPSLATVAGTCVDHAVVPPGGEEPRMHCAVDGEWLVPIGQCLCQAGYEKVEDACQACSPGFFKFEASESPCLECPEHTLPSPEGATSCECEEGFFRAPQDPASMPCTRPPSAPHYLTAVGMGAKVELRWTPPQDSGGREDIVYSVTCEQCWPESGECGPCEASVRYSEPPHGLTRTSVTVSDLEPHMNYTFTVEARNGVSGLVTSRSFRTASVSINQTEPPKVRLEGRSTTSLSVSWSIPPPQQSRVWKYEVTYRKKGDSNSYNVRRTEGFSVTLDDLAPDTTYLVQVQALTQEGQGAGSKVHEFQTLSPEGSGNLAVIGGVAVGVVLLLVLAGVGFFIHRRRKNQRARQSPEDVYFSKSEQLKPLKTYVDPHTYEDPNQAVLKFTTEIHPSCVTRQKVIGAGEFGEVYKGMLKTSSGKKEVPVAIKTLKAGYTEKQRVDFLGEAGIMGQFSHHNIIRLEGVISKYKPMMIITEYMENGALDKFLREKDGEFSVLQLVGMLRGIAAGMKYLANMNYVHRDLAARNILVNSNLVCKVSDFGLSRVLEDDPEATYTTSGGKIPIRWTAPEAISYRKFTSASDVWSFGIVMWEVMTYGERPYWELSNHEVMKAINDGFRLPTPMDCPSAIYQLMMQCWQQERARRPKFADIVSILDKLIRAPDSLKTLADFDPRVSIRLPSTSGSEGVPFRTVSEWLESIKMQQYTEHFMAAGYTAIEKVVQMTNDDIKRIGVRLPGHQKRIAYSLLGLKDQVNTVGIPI

C[C@H](CCC(=O)O)[C@H]1CC[C@H]2[C@@H]3CC[C@@H]4C[C@H](O)CC[C@]4(C)[C@H]3CC[C@]12C [LITHOCHOLIC ACID]
IC50 [1]: 50 µM
IC50 [2]: 57.5 µM
